According to ChEMBL document CHEMBL5625223 (Eur J Med Chem, 2023):

Biological target: Adenosine receptor A2a (Homo sapiens) (UniProt P29274)
Experiment: Displacement of […] from human A2AR expressed in HEK cells at 10 uM relative to control
Assay type: cell-based
Settings: filed as agonist

Activity: 67%
Compound: Clc1nc(NCC2CC2)c2nc[nH]c2n1
